Test [1] has as its system Nurr1 activation in TH-positive neurons from WT and D2R−/− mice.
The subject of test [2] is phosphorylated ERK (p-ERK) in mesencephalic neurons from WT and D2R−/− mice. The experiment in a line: ERK phosphorylation in mesencephalic neurons (immunofluorescence and Western blot). The format is cell-based, mouse. On the technique in general: Immunoblotting shows a protein as a band on a membrane.
For test [3], the system named is TH-positive dopaminergic neurons in mesencephalic cultures from WT and D2R−/− mice. The experiment in a line: Number of TH-positive neurons and neurite length in primary mesencephalic cultures. The format is cell-based, mouse. From the text: D2R−/− mice and wild-type (WT) mice were obtained by mating D2R−/− mice and heterozygous mice, purchased from Institut de Genetiqul et Biologie Moleculaire et celluaire (Strasbourg, France), and their genotypes were identified by Southern hybridization analyses (An J J et al., Mol Cell Neurosci. 2004, 25: 732-741). Insemination was confirmed by vaginal plug and considered to be embryonic day 0 (E0). Pregnant mothers were killed at E14 in accordance with Society for Neuroscience Guidelines. To prepare primary mesencephalic neuronal cultures, the mesencephalon dissected from 14 day gestation mouse embryo was incubated with 0.1% of trypsin in HBSS for 10 minutes at 37° C. and triturated with a constricted Pasteur pipette in high-glucose DMEM media supplemented with 10% FBS (Invitrogen, San Diego, Calif.), 1.4 mM L-glutamine, and 6.0 g/L glucose. The neurons were plated at 1.0×10^5 cells per 18×18 mm coverslip (Marienfeld, Lauda-Konigshofen, Germany) or 2.0×10^5 cells per six-well plates precoated with 50 μg/ml poly-D-lysine and 2 μg/ml laminin (Sigma, St. Louis, Mo.). The neurons were maintained at 37° C. in a humidified 5% CO2 atmosphere in Neurobasal media supplemented with B27 and GlutaMax-1.
To determine whether the absence of dopamine D2 receptor (D2R) might affect the number of dopaminergic neurons, dopaminergic neurons, which were isolated from mesencephalons of wild-type (WT) and D2R−/− embryonic mice, were incubated on slides with 1.0×10^5 cells and precoated with 50 μg/ml poly-D-lysine and 2 μg/ml laminin (Sigma, St. Louis, Mo.) at 37° C. for 5 days, followed by performing immunofluorescence staining. […] Using a microscope equipped with an metamorph imaging system (Universal Imaging Corporation, West Chester, Pa.) in 20 randomly selected fields per each slide, cell counts and morphometric analysis were made in randomly selected unbiased counting frames (>40 frames out of 81 grids were counted). […]

Experimental findings from patent US20090017489A1, “Methods For Modulating The Development Of Dopamine Neuron By The Dopamine D2 Receptor And Compositions Thereof” (Korea University Industry And Academy Cooperation Foundation, priority 2006, published 2009) are described below.

Entries after “also recorded” stand apart in the source; their conditions may differ.

`CCCN1CCC[C@@H]2Cc3n[nH]cc3C[C@H]21` [quinpirole]: the “ratio of Nurr1 positive cells to TH-positive neurons” value in test [1] was “noticeable increase”. Further, the “phosphorylation of ERK” value in test [2] is given as “detected; also recorded: no phosphorylated-ERK was detected”. In addition, in test [3], the “increase in number of TH neurons” value was found to be 25%; the “neuritic extension, average length of neurites” value is “increased; also recorded: little change; also recorded: considerable improvement”; the “number of TH / dopaminergic neurons (in words)” value is “increased; also recorded: little changes; also recorded: little increase in the number of TH neurons was not detected”.
